Results as given in patent US5159081A, “Intermediates of peripherally selective N-carbonyl-3,4,4-trisubstituted piperidine opioid antagonists” (Eli Lilly and Company, priority 1991, dated 1992).
pKi: −log10 of the molar value.

Sequences of proteins named here, by UniProt entry; tags and fusion partners are left off.
UniProt P33535, whole entry, looked up: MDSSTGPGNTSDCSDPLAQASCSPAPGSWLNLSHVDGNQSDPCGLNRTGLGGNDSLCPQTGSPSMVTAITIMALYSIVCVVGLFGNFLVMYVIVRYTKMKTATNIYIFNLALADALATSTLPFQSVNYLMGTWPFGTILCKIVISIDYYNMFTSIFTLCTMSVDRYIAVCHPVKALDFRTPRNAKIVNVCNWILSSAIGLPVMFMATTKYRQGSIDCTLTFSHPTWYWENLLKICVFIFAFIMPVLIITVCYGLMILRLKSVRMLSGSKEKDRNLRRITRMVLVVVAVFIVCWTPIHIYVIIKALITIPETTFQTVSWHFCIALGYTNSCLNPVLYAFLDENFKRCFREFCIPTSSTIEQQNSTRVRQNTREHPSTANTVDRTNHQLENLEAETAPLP
UniProt P42866, whole entry, looked up: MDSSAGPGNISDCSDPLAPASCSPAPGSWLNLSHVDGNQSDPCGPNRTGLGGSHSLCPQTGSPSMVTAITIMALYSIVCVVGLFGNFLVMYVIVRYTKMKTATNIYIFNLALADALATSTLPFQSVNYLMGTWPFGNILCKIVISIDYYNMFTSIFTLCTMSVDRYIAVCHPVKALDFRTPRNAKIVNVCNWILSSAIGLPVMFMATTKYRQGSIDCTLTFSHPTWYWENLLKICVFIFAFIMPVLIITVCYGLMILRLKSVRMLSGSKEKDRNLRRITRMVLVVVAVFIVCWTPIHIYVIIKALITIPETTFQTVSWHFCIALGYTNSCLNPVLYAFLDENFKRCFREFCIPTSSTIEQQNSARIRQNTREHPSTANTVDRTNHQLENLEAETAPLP

How the values were obtained:
[1] = biological target: mu receptor (Rattus norvegicus, UniProt P33535); assay: Naloxone [3H] opioid receptor binding assay (mu receptor); design: species or system rat (male Sprague Dawley); details: [3H]naloxone 0.5 nM, 20 min
[2] = biological target: peripheral opioid receptors (Mus musculus, UniProt P42866); assay: mouse diarrhea test: precipitated diarrhea in morphine-maintained mice (peripheral opioid activity); assay type: in vivo; details: subcutaneous or oral, 30 min observation

| Compound | pKi ([1]; rat whole brain minus cerebellum, pH 7.4, 37° C.) | ED50 [2] [mg/kg] | % displacement at 10 nM ([1]; 10 nM test compound) [%] | % displacement at 100 nM ([1]; 100 nM test compound) [%] |
| --- | --- | --- | --- | --- |
| C[C@H]1CN(CCN(C(=O)CCCC(=O)O)c2ccccc2)CC[C@@]1(C)c1cccc(O)c1 (relative stereo) [Example 20, Trans-5-(phenyl-(2-(4-(3-hydroxyphenyl)-3,4-dimethyl-1-piperidinyl)ethyl)amino)-5-oxopentanoic acid monohydrate] | 9.13 |  |  |  |
| CC(C)C[C@H](NC(=O)CCC(=O)N(CCN1CCC(C)(c2cccc(O)c2)C(C)C1)c1ccccc1)C(=O)O.Cl.O (stereo partly shown) |  | 0.05 | 100 | 99 |
